Source: BindingDB's records for PubMed 17827 (1977)

Molecular target: T1, Alpha-1A adrenergic receptor (Rattus norvegicus, UniProt P43140)
T1 sequence (P43140 whole entry): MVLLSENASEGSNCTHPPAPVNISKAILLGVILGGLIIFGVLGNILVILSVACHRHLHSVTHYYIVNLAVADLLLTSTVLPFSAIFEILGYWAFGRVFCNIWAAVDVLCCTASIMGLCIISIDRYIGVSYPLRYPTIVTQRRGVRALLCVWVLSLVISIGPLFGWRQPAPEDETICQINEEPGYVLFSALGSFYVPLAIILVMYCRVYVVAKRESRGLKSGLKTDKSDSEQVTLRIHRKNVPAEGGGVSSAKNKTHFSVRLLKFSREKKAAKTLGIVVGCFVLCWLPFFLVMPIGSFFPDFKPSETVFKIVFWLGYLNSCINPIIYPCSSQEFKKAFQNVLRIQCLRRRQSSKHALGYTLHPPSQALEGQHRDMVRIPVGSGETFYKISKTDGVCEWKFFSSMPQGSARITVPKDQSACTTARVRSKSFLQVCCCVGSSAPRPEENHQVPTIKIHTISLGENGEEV

Ki: 5.7 nM
Compound: c1ccc2c(CC3=NCCN3)cccc2c1 [Naphazoline]
